# Patent US6683105B2 (priority 1997, dated 2004)
# Amino acid sequences for entries named in this document (tags omitted). Residues count along the entry.
# UniProt P06276, 29-602: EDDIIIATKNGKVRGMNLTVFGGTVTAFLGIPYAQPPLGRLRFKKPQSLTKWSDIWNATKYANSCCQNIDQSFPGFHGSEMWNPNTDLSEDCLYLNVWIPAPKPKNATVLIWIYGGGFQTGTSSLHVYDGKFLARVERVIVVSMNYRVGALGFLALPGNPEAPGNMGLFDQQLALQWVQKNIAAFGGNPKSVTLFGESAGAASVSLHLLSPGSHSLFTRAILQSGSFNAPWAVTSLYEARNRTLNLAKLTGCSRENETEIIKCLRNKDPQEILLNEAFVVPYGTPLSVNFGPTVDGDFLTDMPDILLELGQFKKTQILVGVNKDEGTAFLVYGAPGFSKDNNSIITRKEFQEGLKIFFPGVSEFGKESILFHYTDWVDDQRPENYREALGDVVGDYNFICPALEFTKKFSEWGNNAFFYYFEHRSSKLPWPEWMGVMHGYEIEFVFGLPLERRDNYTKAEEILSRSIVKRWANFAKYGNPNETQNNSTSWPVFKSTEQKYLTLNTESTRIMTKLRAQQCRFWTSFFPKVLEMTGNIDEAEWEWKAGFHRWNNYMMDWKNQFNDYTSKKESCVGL
# UniProt P22303, 32-617 isoform P22303-2 limits assumed: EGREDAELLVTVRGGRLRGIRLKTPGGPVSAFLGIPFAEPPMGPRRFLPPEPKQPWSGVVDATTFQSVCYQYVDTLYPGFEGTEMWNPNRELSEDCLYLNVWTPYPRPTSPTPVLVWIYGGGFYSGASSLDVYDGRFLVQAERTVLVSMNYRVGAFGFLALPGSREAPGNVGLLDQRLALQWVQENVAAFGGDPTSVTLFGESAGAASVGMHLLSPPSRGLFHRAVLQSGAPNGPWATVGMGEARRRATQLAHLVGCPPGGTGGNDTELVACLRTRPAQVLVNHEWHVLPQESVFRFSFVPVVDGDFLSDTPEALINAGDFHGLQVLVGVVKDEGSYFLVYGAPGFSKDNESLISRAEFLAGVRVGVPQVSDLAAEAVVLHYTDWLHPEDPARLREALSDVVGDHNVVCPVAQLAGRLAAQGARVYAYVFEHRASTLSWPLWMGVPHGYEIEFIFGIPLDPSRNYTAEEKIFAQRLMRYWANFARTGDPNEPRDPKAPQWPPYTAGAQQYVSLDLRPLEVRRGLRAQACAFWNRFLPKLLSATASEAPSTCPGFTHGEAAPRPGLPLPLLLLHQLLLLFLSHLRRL
# What was measured:
# human plasma BChE = target: T1, human plasma BChE (Homo sapiens, UniProt P06276); assay: BChE inhibition, IC(50) by logit plot; assay type: biochemical
# T1 construct: human plasma BChE; from tissue; host or cells: human plasma
# Procedure: (§1) The IC (50) values can be determined for such inhibitors using methods well known in the art. In such assay the pharmacological activity of each compound, as an IC (50), defined as the concentration, in nanomoles, required to inhibit 50% of the enzyme activity of AChE and BChE, is determined separately. For determination of IC (50) values, the enzyme activity of each concentration was expressed as a percent of that determined in the absence of each compound. This then was transformed into a logit format, where logit=In (% activity/[100-% activity]), and was plotted as a function of the log concentration of the compound. IC (50) values (i.e., logit=In (50/[100−5O]=0) were determined only from correlation coefficients (r^2) of less than −0.985 and when more than 50% inhibition was achieved from duplicate samples. The selectivity ratio is then determined by comparing the IC (50) values obtained for each compound with AChE to that for BChE.
# human erythrocyte AChE = human erythrocyte AChE (Homo sapiens, UniProt P22303); conditions: read-out: IC50 of AChE
# Procedure: as §1
substance,measurement,setting,value
3′-methyl-carbamoyl eseroline,IC50,human plasma BChE,165 nM
same,IC50,human erythrocyte AChE,27 nM
